For data set [1], the system named is auditory brainstem response (ABR) threshold / hearing. To be noted: for ototoxicity (summary of the in vivo studies): in vivo studies disclosed herein; for ABR threshold, sound pressure (decibels): male rats, nine i.p. injections over nine days at 39.6, 59.4 or 79.2 mg/kg, ABR on day 25 vs pre-injection, 8, 16 and 32 kHz.
Data set [2] deals with serum creatinine / kidney function. To be noted: rats of Examples 1 and 2; 39.6, 59.4 or 79.2 mg/kg i.p.; experimental days 5, 9 and 25.

In the case of C-2 gentamicin, in data set [1], the “ototoxicity (summary of the in vivo studies)” value is “increased ototoxicity relative to native gentamicin” and the “ABR threshold, sound pressure (decibels)” value is “increased significantly”. Further, the “serum creatinine levels relative to saline control” value in data set [2] is on record as “did not significantly affect serum creatinine levels”.

As for C-2a gentamicin, in data set [1], the “ototoxicity (summary of the in vivo studies)” value is reported as “no significant ototoxicity” and the “ABR threshold, sound pressure (decibels)” value is listed as “did not significantly increase”. Besides, the “serum creatinine levels relative to saline control” value in data set [2] is on record as “did not significantly affect serum creatinine levels”.
